## scFv variants of Ab-14 (light chain) against a SARS-CoV-2 spike peptide

The measurements come from Li et al. 2023 (doi:10.1038/s41467-023-39022-2) through the FLAb antibody collection.

Target peptide (SARS-CoV-2 spike, HR2 region): PDVDLGDISGINAS

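The starting antibody came from a phage panning campaign against this peptide. Designed CDR sequences, proposed from the first random library and measured here. Several design methods are mixed in this list. AlphaSeq pools MATa yeast showing the antibodies with MATalpha yeast showing the peptide. After mating in shaken culture at 30 °C for 16 h, diploids were selected and their barcode pairs sequenced. A regression on co-assayed BCL2-family reference pairs converts the normalised counts of each replicate to an apparent Kd. Mating was done six times.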

Ab-14 is the parent antibody, in scFv form: VH, then a (GGGGS)3 linker, then VL. The heavy chain is unchanged in all variants.
VH: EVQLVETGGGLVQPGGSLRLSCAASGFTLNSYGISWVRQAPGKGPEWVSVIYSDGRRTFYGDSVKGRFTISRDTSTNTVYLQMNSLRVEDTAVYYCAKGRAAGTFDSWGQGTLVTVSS
VL: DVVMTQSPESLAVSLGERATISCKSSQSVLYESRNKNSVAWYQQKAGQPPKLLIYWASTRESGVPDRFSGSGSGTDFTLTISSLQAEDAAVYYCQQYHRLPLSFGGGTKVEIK

Changes read parent residue, position, new residue, counted from the first residue of the VL shown. Variants here have at most six changes. Values are log10 of the apparent Kd in nM; lower means stronger binding. Where no diploid with the target was found in that replicate, the entry reads "nd": below detection, most likely a poor binder, though not proof of it. The authors averaged sequences with at least three values out of six and counted those with two or fewer as poor binders. Values of this round are not directly comparable with the first-round values of the same sequences. Of ten entries with the parent sequence, four were seen in most replicates (averages 0.34 to 2.37), three in one and three in none, so single entries are noisy. Nonspecific signal, from three strains lacking the peptide, appeared in 4% of pairings of all light chain designs, centred on 2.64 (5% of these signals below 1.59); values are not corrected for it.

changes,"log10 Kd, replicates"
Q27T/N35L,nd nd nd nd nd nd
S25L/V29E/W56G/S62D,0.48 0.38 0.11 0.62 0.48 0.76
L102F/S103K,3.60 1.95 3.18 1.96 1.97 nd
S25V/Y31G/S33Q/N35A/K36Q/W56E,0.09 0.16 -0.33 -0.05 -0.23 -0.54
S25F/S26V/N35T/W56N/S103H,0.17 -0.06 -0.43 -0.06 -0.27 -0.67
K24M/S25M/V29G/L30I/S58D,1.18 nd nd 2.50 1.92 1.44
S25M/Y31M/S33M/K36A/W56N/S62E,0.17 0.15 0.13 -0.16 0.17 0.44
S25L/W56E/S58G,-0.31 -0.29 -0.34 -0.38 -0.44 -0.13
L30W/W56A,1.31 1.10 0.60 0.92 0.85 0.83
S25F/E32T/K36C/W56A,0.88 0.27 0.42 0.80 0.58 0.71
S25L/V29F/S38A/W56G/P101T,-0.13 -0.17 -0.21 -0.15 -0.03 -0.15
V29W/L30P/W56N,0.28 0.12 0.00 -0.05 0.24 0.37
Q27W/V29F/K36N/W56G/P101T,0.25 0.48 0.30 0.00 0.26 0.53
S25L/V29W/W56N/T59Q,-0.18 -0.05 -0.15 -0.27 -0.25 -0.04
S26D/Q27I/S28W/V29Y/W56E,0.44 0.38 0.16 0.24 0.28 0.37
S28N/V39I/S58Q,0.63 1.83 1.46 nd nd 3.26
Q27W/Y31F/W56N,0.29 0.44 0.26 0.43 0.50 0.75
S25T/L30K/Y31F/W56D,0.87 1.00 0.79 0.54 0.86 0.86
L30S/Y31M/T59V/L100P,nd 1.76 nd 2.63 2.90 nd
L30M/Y31N/T59K/S62A/H98S,1.53 2.22 1.92 1.68 1.69 2.19
K24H/S25Q/Q27P/W56N/A57G/S62V,-0.19 -0.11 -0.27 -0.35 -0.17 -0.15
S25L/S26A/W56E,0.07 -0.04 -0.23 -0.12 -0.33 0.02
S25L/S26Q/S28Q/V29W/L30E/W56S,0.10 0.31 0.04 0.22 0.21 0.36
V29M/R34Q,1.25 0.38 0.30 0.62 0.74 0.66
S25F/N35T/W56N,-0.02 -0.05 -0.20 0.03 0.07 -0.12
K24A/S25V/V29H/W56E/S62Q,0.16 -0.14 0.10 -0.26 -0.29 0.07
K36F/S103D,nd nd 1.94 nd nd nd
V29W/E32F/W56G,0.84 0.67 0.37 0.77 1.06 0.93
S25L/S26P/L30D/W56D,0.10 -0.09 -0.25 -0.28 -0.19 -0.09
S25L/N35M/W56N/E61C,0.05 -0.08 -0.13 -0.15 -0.06 0.10
W56E/S62H/H98S,-0.16 -0.21 -0.71 -0.37 -0.24 -0.56
V29W/S33D/P101S,nd nd nd nd nd nd
V29E/L30D/W56D,0.30 0.26 0.36 -0.18 -0.12 0.34
S25V/N35M/W56D/E61L,0.23 0.02 -0.02 0.02 0.18 0.32

Excerpt, the first 3 entries:

changes,"log10 Kd, replicates"
Q27T/N35L,nd nd nd nd nd nd
S25L/V29E/W56G/S62D,0.48 0.38 0.11 0.62 0.48 0.76
L102F/S103K,3.60 1.95 3.18 1.96 1.97 nd